Data published in patent US20050164945A1, “Endotheliase-1 ligands” (priority 2003, published 2005).
Read-outs that look alike come from different tables or passages of the source.

Chains of the proteins cited; added tags and fusions are not shown. Lines headed by an entry give the natural chain unless they say otherwise; changes in a name come on top. Residues count along the entry.
UniProt P00747, 97-580 partner limits assumed, species assumed: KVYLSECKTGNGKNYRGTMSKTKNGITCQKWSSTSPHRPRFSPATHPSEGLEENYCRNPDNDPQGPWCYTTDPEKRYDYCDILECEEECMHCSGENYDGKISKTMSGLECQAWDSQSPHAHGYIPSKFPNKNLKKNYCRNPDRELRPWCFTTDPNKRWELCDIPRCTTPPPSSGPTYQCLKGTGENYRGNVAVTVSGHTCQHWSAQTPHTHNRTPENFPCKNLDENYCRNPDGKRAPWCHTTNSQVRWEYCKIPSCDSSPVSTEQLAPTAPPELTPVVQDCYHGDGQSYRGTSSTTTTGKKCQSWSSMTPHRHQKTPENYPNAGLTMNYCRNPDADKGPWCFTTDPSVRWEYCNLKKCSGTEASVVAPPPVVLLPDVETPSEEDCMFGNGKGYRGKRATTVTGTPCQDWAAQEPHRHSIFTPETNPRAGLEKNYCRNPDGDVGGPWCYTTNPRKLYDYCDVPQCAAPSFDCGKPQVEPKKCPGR
UniProt P00747, 581-810 limits assumed, species assumed: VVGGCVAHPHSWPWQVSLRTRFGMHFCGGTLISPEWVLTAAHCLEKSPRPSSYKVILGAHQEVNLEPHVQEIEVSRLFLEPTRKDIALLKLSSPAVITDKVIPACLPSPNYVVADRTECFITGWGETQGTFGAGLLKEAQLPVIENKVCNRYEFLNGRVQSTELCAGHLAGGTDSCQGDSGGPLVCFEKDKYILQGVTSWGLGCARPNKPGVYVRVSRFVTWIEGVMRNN
UniProt P35030: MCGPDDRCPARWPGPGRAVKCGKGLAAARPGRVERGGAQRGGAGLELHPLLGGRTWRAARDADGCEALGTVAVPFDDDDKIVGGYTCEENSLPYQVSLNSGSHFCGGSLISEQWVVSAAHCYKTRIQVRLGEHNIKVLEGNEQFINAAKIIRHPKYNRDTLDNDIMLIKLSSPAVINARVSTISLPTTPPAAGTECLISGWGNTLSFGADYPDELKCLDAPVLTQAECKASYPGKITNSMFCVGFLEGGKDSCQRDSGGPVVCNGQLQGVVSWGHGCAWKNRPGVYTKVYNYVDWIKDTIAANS
UniProt P00742, 41-179 partner limits assumed: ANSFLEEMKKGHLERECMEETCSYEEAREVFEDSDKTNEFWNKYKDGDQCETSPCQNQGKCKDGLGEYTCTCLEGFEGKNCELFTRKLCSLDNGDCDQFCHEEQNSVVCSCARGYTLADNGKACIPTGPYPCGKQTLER
UniProt P00742, 235-488 limits assumed: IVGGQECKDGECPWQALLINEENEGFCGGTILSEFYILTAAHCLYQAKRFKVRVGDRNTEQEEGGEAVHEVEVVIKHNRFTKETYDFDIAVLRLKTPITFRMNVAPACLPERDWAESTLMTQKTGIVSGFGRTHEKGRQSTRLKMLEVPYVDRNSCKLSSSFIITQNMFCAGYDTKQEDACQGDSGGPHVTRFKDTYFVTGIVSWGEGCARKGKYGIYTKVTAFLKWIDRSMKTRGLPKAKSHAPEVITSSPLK
UniProt Q9Y5Y6, whole entry, species assumed: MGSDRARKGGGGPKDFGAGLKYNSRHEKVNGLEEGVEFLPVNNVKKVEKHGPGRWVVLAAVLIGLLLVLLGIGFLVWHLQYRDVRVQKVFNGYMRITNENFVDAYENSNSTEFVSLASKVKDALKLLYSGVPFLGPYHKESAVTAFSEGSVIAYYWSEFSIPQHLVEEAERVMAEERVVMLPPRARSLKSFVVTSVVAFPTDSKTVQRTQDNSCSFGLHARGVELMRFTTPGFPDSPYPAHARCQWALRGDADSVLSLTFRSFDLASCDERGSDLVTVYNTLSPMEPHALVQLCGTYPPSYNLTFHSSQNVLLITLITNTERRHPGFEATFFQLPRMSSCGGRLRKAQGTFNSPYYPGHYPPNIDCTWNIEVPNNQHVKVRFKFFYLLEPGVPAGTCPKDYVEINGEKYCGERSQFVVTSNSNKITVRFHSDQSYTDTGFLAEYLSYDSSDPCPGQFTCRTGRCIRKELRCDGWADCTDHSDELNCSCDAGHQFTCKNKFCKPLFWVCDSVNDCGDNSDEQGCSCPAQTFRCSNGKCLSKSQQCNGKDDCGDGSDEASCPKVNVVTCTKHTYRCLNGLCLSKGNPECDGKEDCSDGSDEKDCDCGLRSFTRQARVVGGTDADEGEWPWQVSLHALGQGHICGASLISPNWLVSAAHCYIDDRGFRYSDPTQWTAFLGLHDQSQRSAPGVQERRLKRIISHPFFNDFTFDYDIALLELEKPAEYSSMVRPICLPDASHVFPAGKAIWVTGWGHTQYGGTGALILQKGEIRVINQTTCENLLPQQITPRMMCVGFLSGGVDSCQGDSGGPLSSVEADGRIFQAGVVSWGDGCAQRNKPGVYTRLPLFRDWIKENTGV

What was measured:
ET1 [1] = target: T1, ET1 (Homo sapiens, UniProt Q9UL52); assay: Inhibition of ET1 by synthetic peptides (IC50, apparent Ki); assay type: biochemical; parameters: made in house; host or cells: Pichia; conditions: for IC50: crude IC50s of synthetic peptides
T1 sequence (Q9UL52 2-423 limits assumed): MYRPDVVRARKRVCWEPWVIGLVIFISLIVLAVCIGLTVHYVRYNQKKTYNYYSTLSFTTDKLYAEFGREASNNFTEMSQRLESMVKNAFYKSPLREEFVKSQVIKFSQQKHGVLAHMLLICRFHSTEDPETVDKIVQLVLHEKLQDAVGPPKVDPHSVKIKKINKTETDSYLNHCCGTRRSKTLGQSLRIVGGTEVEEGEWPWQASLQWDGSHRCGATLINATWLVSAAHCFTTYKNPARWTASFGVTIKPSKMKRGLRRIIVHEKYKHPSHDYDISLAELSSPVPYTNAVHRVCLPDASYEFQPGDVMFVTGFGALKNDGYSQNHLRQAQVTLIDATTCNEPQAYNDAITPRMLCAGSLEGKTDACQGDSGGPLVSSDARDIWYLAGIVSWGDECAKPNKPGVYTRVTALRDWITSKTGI

ET1 [2] = target: T1, ET1
Experimental: (§1) Cloning into this vector placed a His-tag at the C-terminus of the protein that was used to facilitate purification.
(§2) For protein production, E. coli containing the expression vector were grown in media containing ampicillin and 2% glucose to an OD600 of 0.5. At this time the cells were spun down and the media removed. The cell pellet was then resuspended in fresh media containing ampicillin and 1 mM IPTG to induce expression of the protein. The cells were allowed to grow with shaking overnight at 30° C. before harvesting by centrifugation. Periplasmic extracts were then prepared and the MBP-Kunitz fusion purified using immobilized metal ion chromatography.

Plasmin = Plasmin (Homo sapiens, UniProt P00747); conditions: read-out: Plasmin estimated IC50, 30 minute preincubation with 100 nM Kunitz domain
Experimental: as §1, §2

TnIV = TnIV (Homo sapiens, UniProt P35030); conditions: read-out: TnIV estimated IC50, 30 minute preincubation with 100 nM Kunitz domain
Experimental: as §1, §2

fXa = fXa (Homo sapiens, UniProt P00742); conditions: read-out: fXa estimated IC50, 30 minute preincubation with 100 nM Kunitz domain
Experimental: as §1, §2

MTSP-1 = MTSP-1 (Homo sapiens, UniProt Q9Y5Y6); conditions: read-out: MTSP-1 estimated IC50, 30 minute preincubation with 100 nM Kunitz domain
Experimental: as §1, §2

[3] = apparent Ki, uncorrected for substrate binding, second generation peptides, read-out: Ki^App against ET1
[4] = read-out: T^0 IC50, ET1, 0 minute preincubation
[5] = read-out: T^30 IC50, ET1, 30 minute preincubation
[6] = Table 2, motif 1 peptides, read-out: Ki
[7] = Table 3, motif 2 peptides, read-out: Ki

Sequence: AGQVRRYCISRDIPCVTHGT [DX-1626]
- Ki (ET1 [1]; [3]): 16.6 nM

Sequence: MAAEMHSFCAFKADKGTCRGDFPRFFFNIFTRQCEEFHYGGCGGNQNRFESLEECKKMCTRDSASSASGDFD [MBP-1E9]
- IC50 (ET1 [2]; [4]): 66 nM
- IC50 (ET1 [2]; [5]): 2.1 nM
- IC50 (Plasmin): ≥ 1000 nM
- IC50 (TnIV): ≥ 1000 nM

Sequence: AGRSRVRCISRDIPCVTHGTY [DX-1629]
- Ki (ET1 [1]; [3]): 145 nM

Sequence: MAAEMHSFCAFKADPGPCRAIMTRFFFNIFTRQCEEFRYGGCLGNQNRFESLEECKKMCTRDSASSASGDFD [MBP-1G11]
- IC50 (ET1 [2]; [4]): 120 nM
- IC50 (ET1 [2]; [5]): 2.7 nM
- IC50 (Plasmin): ~50 nM
- IC50 (TnIV): ≥ 1000 nM
- IC50 (fXa): ≥ 1000 nM

Sequence: AGHGECMVASHMCIKHGTY [DX-1134]
- IC50 (ET1 [1]): > 10 µM

Sequence: AGQLGWKCKGYYPDCGYPGT [DX-1643]
- Ki (ET1 [1]; [3]): 25.6 nM

Sequence: MAAEMHSFCAFKADRGPCRAYFDRFFFNIFTRQGEEFIYGGCMGNQNRFESLEECKKMCTRDSASSASGDFD [MBP-1G8]
- IC50 (ET1 [2]; [4]): 109 nM
- IC50 (ET1 [2]; [5]): 2.1 nM
- IC50 (Plasmin): ~80 nM
- IC50 (TnIV): ~10 nM
- IC50 (fXa): ≥ 1000 nM

Sequence: GDYLQCRWNAWENRTLCTWRDP [DX-1042]
- IC50 (ET1 [1]): > 10 µM

Sequence: AGGFKCISEEEDCKLMGT [DX-1073]
- IC50 (ET1 [1]): > 10 µM

Sequence: AGNWYCKGLYPDCMHKGT [DX-1132]
- IC50 (ET1 [1]): 0.11 µM

Sequence: AGRASWRCKGYYPDCGYPGT [DX-1640]
- Ki (ET1 [1]; [3]): 29 nM

Sequence: AGLRKCGFWGFPCKGMGT [DX-1040]
- IC50 (ET1 [1]): > 10 µM

Sequence: AGKMRCISRDIPCTTRVAGTY [DX-1636]
- Ki (ET1 [1]; [3]): 11.3 nM

Sequence: MAAEMHSFCAFKADRGPCRADFHRFFFNIFTRQCEEFHYGGCGGNQNRFESLEECKKMCTRDSASSASGDFD [MBP-1A10]
- IC50 (ET1 [2]; [4]): 88 nM
- IC50 (ET1 [2]; [5]): 3.1 nM
- IC50 (MTSP-1): ≥ 1000 nM
- IC50 (Plasmin): ~100 nM
- IC50 (TnIV): ~80 nM

Sequence: GSNHICPSMGCKFSAP [DX-1081]
- IC50 (ET1 [1]): > 10 µM

Sequence: AGKMRCLSRDIPCVNFRLGT [DX-1634]
- Ki (ET1 [1]; [3]): 19.3 nM

Sequence: AGSGRRFCISRDIPCVTHGT [DX-1630]
- Ki (ET1 [1]; [3]): 128 nM

Sequence: AGAHTCESRDIPCTVKGT [SEQ ID NO:208]
- Ki (ET1 [1]; [6]): 100 to 1000 nM

Sequence: AGMARVKCISRDIPCVTHGTY [DX-1631]
- Ki (ET1 [1]; [3]): 13.1 nM

Sequence: AGKMRCISRDIPCTVKSGGTY [DX-1632]
- Ki (ET1 [1]; [3]): 15.8 nM

Sequence: GSNGHCDNHCQMNAP [DX-1044]
- IC50 (ET1 [1]): > 10 µM

Sequence: GSSMFCDAYYCTDHAP [DX-1083]
- IC50 (ET1 [1]): > 10 µM

Sequence: AGKHICRGFYPDCVWQTWGT [DX-1645]
- Ki (ET1 [1]; [3]): 15.6 nM

Sequence: MAAEMHSFCAFKADTGPCRADIKRFFFNIFTRQCEEFRYGGCMGNQNRFESLEECKKMCTRDSASSASGDFD [MBP-1G9]
- IC50 (ET1 [2]; [4]): 646 nM
- IC50 (ET1 [2]; [5]): 20.7 nM
- IC50 (MTSP-1): ≥ 1000 nM
- IC50 (Plasmin): ~100 nM

Sequence: AQGDNIGVWLWAPYSKGFAWQLGG [DX-1043]
- IC50 (ET1 [1]): > 10 µM

Sequence: MAAEMHSFCAFKADKGFCRAMDIRFFFNIFTRQCEEFIYGGCGGNQNRFESLEECKKMCTRDSASSASGDFD [MBP-1B2]
- IC50 (ET1 [2]; [4]): 21 nM
- IC50 (ET1 [2]; [5]): 1.3 nM
- IC50 (Plasmin): ~500 nM
- IC50 (TnIV): ≥ 1000 nM

Sequence: AGKHICRGYYPDCIWQFAGT [DX-1648]
- Ki (ET1 [1]; [3]): 19.8 nM

Sequence: AGTMSCDGSMVPCYTPGT [DX-1076]
- IC50 (ET1 [1]): > 10 µM

Sequence: AGKMRCISRDIPCSHYQIGT [DX-1637]
- Ki (ET1 [1]; [3]): 8.5 nM

Sequence: AGKHICRGFYPDCVWQTFGT [DX-1649]
- Ki (ET1 [1]; [3]): 22.1 nM

Sequence: AGPDPCRMQGPWCTPMGT [DX-1074]
- IC50 (ET1 [1]): > 10 µM

Sequence: MAAEMHSFCAFKADTGTCRAAMVRFFFNIFTRQCEEFTYGGCEGNQNRFESLEECKKMCTRDSASSASGDFD [MBP-1H8]
- IC50 (ET1 [2]; [4]): > 400 nM
- IC50 (ET1 [2]; [5]): 15 nM
- IC50 (Plasmin): ~60 nM

Sequence: AGKMRCLSRDIPCSIHQKGTY [DX-1633]
- Ki (ET1 [1]; [3]): 26.4 nM

Sequence: GDDNECEPDADLSEYECVHRDP [DX-1078]
- IC50 (ET1 [1]): > 10 µM

Sequence: AGKHICRGYYPDCEWQIFGT [DX-1650]
- Ki (ET1 [1]; [3]): 33.6 nM

Sequence: MAAEMHSFCAFKADQGPCRAAISRFFFNIFTRQCEEFVYGGCEGNQNRFESLEECKKMCTRDSASSASGDFD [MBP-1D9]
- IC50 (ET1 [2]; [4]): 164 nM
- IC50 (ET1 [2]; [5]): 7.1 nM
- IC50 (Plasmin): ~60 nM
- IC50 (TnIV): ≥ 1000 nM

Sequence: AGNTGWRCKGYYPDCGYPGT [DX-1639]
- Ki (ET1 [1]; [3]): 28 nM

Sequence: GDSPHCGSHVTVNEKSCMFYDP [DX-1080]
- IC50 (ET1 [1]): > 10 µM

Sequence: AGGWRYPCKGFYPDCGYPGT [DX-1638]
- Ki (ET1 [1]; [3]): 126 nM

Sequence: AGKHICRGYYPDCVWQTFGT [DX-1647]
- Ki (ET1 [1]; [3]): 12.7 nM

Sequence: AGKMRCISRDIPCTVFQEGT [DX-1635]
- Ki (ET1 [1]; [3]): 8.5 nM

Sequence: MAAEMHSFCAFKADPGQCRAYYRRFFFNIFTRQCEEFVYGGCMGNQNRFESLEECKKMCTRDSASSASGDFD [MBP-1G2]
- IC50 (ET1 [2]; [4]): 310 nM
- IC50 (ET1 [2]; [5]): 8.2 nM
- IC50 (Plasmin): ~40 nM
- IC50 (TnIV): ~600 nM
- IC50 (fXa): ~100 nM

Sequence: AQPHWVPNQPVRDRWQSFPKWLGG [DX-1077]
- IC50 (ET1 [1]): > 10 µM

Sequence: GSQHICHPGGCEKPAP [DX-1038]
- IC50 (ET1 [1]): > 10 µM

Sequence: AGRETWVCKGYYPDCGYPGT [DX-1641]
- Ki (ET1 [1]; [3]): 34.6 nM

Sequence: AQNREHSSKFGTVRYSTLGPPPGG [DX-1045]
- IC50 (ET1 [1]): > 10 µM

Sequence: AGKHICRGYYPDCVWQTWGT [DX-1646]
- Ki (ET1 [1]; [3]): 8.6 nM

Sequence: AGVQHCESRDLPCLIKGT [DX-1051]
- Ki (ET1 [1]; [6]): 100 to 1000 nM
- IC50 (ET1 [1]): 0.77 µM

Sequence: AQGMQDEGGAIRHKGAWYWMMAGG [DX-1046]
- IC50 (ET1 [1]): > 10 µM

Sequence: AGRAGWRCKGYYPDCGYPGT [DX-1642]
- Ki (ET1 [1]; [3]): 11.6 nM

Sequence: MAAEMHSFCAFKADKGECRASVQRFFFNIFTRQCEEFNYGGCGGNQNRFESLEECKKMCTRDSASSASGDFD [MBP-D12]
- IC50 (ET1 [2]; [4]): 54.3 nM
- IC50 (ET1 [2]; [5]): 1.2 nM
- IC50 (Plasmin): ~500 nM
- IC50 (TnIV): ≥ 1000 nM
- IC50 (fXa): ≥ 1000 nM

Sequence: AGSSGWRCKGYYPDCGYPGT [DX-1644]
- Ki (ET1 [1]; [3]): 8.6 nM

Sequence: AGTEFCWLHKGICKTWGT [DX-1075]
- IC50 (ET1 [1]): > 10 µM

Sequence: AGQMRRKCISRDIPCVTHGTY [DX-1628]
- Ki (ET1 [1]; [3]): 10.2 nM

Sequence: AGFQKCKGLYPDCYVPGT [DX-1054]
- IC50 (ET1 [1]): 10 µM

Sequence: GSSFFCVGPECWTSAP [DX-1082]
- IC50 (ET1 [1]): > 10 µM

Sequence: GSWDSCNELRCIWDAP [DX-1084]
- IC50 (ET1 [1]): > 10 µM

Sequence: GDNLFCGHSKYAQDHRCRLYDP [DX-1079]
- IC50 (ET1 [1]): > 10 µM

Sequence: AGNYMCKGYWPDCKMTGT [DX-1133]
- Ki (ET1 [1]; [7]): 256 nM
- IC50 (ET1 [1]): 0.35 µM

Sequence: MAAEMHSFCAFKADQGPCRASVHRFFFNIFTRQCEEFFYGGCLGNQNRFESLEECKKMCTRDSASSASGDFD [MBP-1F8]
- IC50 (ET1 [2]; [4]): > 400 nM
- IC50 (ET1 [2]; [5]): 21.4 nM
- IC50 (Plasmin): ~60 nM

Sequence: AGWPTCRGFWPDCGMMGT [DX-1135]
- Ki (ET1 [1]; [7]): 100 to 1000 nM
- IC50 (ET1 [1]): 0.047 µM

Sequence: MAAEMHSFCAFKADPGPCRAMFNRFFFNIFTRQCEEFNYGGCSGNQNRFESLEECKKMCTRDSASSASGDFD [MBP-1E6]
- IC50 (ET1 [2]; [5]): 4.9 nM
- IC50 (MTSP-1): ~500 nM
- IC50 (Plasmin): ~30 nM
- IC50 (TnIV): ~100 nM

Sequence: GSVGLCYQNFCKKIAP [DX-1100]
- IC50 (ET1 [1]): > 10 µM
